Laboratory results from article PMC8000592, “Discovery and Optimization of Selective Inhibitors of Meprin α (Part I)” (Pharmaceuticals, 2021).

Experiments:
[1] = system: MMP and ADAM; details: cited from earlier work
[2] = target: T1, meprin α (Homo sapiens, UniProt Q16819); assay: Meprin α assay, fluorogenic substrate (Mca)-YVADAPK-(K-ε-Dnp), 384 and 1536 well plate formats; type: biochemical; details: versus meprin β, in words
T1 sequence (Q16819 66-593 limits assumed): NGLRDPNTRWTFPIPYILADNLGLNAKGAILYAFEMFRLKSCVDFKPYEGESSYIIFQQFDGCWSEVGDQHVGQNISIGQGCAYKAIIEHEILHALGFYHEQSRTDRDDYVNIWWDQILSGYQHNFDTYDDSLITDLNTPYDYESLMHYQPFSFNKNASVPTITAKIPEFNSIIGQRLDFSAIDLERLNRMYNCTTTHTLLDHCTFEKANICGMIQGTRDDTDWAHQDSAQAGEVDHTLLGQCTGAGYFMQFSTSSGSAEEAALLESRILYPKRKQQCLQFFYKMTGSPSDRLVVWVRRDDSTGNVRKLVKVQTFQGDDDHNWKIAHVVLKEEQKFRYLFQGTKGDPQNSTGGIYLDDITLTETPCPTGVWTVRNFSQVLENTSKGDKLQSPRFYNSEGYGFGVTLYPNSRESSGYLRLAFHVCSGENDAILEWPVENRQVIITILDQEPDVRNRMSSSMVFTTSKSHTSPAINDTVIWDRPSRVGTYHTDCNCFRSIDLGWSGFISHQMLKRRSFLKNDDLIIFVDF
Description: The meprin α and meprin β assays, which utilize the substrates (Mca)-YVADAPK-(K-ε-Dnp) and (Mca)-EDEDED-(K-ε-Dnp), respectively, have been described previously. To enable an ultra-high-throughput screening (uHTS) campaign, we proceeded to miniaturize both assays to 1536 well plate format (wpf). First, we recapitulated the assays in 1536 well plate using reagents at the same concentrations as in 384 well plate format assays by scaling the volume down by the factor of 2.5.
Both assays followed the same general protocol. […] Reactions were incubated at RT for 1 h, after which the fluorescence was measured using the Synergy H4 multimode microplate reader (Biotek Instruments) (λexcitation = 324 nm, λemission = 390 nm).
Both assays followed the same general protocol. […] Reactions were incubated at RT for 1 h, after which the fluorescence was measured using the Viewlux multimode microplate reader (Perkin Elmer) (λexcitation = 324 nm, λemission = 390 nm).
The miniaturized 1536-well plate format meprin α and meprin β assays were used to screen a collection of approximately 650,000 compounds (The Scripps Research library, La Jolla, CA, USA) on the automated Kalypsys/GNF platform at The Scripps Research Molecular Screening Center (SRMSC, Jupiter, FL, USA: http://hts.florida.scripps.edu/). […] Sample to background (S/B) ratios, as well as Z and Z’ values, were calculated on a per plate basis as described 14. […]

| SMILES | selectivity against adamalysins and matrixins [1] | selectivity for meprin α [2] |
| --- | --- | --- |
| Cc1nc(/N=N/c2cc(S(=O)(=O)O)c3cc([N+](=O)[O-])cc(S(=O)(=O)O)c3c2)c(COP(=O)(O)O)c(C=O)c1O [PPNDS] | good selectivity |  |
| O=C(COc1ccc(Cl)cc1Cl)NO [Compound 1596857] |  | show selectivity for meprin α |
